T1: LIN28A (human?, UniProt Q9H9Z2 1-209)
T1 sequence: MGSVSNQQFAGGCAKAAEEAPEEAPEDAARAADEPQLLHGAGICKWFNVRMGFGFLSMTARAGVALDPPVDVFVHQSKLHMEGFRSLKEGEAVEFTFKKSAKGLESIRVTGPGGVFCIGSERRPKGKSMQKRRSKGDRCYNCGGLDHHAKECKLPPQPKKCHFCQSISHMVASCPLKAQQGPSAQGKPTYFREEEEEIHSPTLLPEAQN

T2: CIRBP (Homo sapiens, UniProt Q14011 1-172)
T2 sequence: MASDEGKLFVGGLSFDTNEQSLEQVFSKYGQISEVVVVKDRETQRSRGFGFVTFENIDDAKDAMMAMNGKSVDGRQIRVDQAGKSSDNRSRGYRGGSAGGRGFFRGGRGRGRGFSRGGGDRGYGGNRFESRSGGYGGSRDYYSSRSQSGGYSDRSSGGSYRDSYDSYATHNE

T3: DHX36 (Homo sapiens, UniProt Q9H2U1 1-1008)
T3 sequence: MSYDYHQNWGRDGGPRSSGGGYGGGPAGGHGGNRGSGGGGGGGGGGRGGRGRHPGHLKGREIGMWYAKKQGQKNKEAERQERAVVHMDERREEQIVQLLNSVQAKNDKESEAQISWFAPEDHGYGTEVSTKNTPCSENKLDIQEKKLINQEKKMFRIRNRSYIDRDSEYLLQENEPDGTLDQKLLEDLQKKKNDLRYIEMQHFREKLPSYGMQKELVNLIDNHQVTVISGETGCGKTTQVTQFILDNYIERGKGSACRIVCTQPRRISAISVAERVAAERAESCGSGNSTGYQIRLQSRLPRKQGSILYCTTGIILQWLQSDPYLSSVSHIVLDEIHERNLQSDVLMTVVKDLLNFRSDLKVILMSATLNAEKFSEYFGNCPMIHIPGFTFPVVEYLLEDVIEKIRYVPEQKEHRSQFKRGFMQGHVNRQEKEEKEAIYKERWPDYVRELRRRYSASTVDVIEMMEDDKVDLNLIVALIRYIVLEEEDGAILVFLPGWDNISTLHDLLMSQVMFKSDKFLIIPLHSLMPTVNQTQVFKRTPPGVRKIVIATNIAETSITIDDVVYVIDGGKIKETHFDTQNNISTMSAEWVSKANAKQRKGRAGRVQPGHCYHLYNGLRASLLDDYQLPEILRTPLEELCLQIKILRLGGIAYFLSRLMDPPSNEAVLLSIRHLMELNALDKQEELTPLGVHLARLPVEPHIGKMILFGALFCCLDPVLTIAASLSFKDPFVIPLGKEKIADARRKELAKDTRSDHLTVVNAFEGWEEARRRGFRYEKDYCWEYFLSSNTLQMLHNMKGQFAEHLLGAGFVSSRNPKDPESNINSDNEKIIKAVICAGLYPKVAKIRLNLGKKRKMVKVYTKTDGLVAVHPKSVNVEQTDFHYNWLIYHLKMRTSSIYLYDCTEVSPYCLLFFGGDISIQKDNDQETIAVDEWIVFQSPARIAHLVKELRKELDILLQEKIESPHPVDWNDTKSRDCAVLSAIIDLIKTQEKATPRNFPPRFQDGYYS

B1: hsa-mir-6787 (structured_RNA)
RNA: GGGAAUACUUCGCGGAUUUGCAAGACUGGGUGUACGAAGUUUCAGCGGCUGCAGGCCCGGCCCCUCUCGCUGAAGCUUCGUGCAC
B2: hsa-mir-3922 (structured_RNA)
RNA: GGGAACUGGUCUGCUCCGGAUGCUUAAAGGUGUACGAAGUUUCAGCCAGAGGUCCCACAGCAGGGCUGGAAAGCACACCUGUGGGACUUCUGGCUGAAGCUUCGUGCAC
B3: hsa-mir-3677 (structured_RNA)
RNA: GGGAAUGCACGACUGUACGAUUGAUCCUGGUGUACGAAGUUUCAGCUGCAGUGCUGGGCAUGGGCUUCUCGGCUGAAGCUUCGUGCAC
B4: PARIS_ID1 (structured_RNA)
RNA: GGGAGGAGAUGCCUUUCCAGAAACCACGGGUGUACGAAGUUUCAGCAGCAUUUCUGAAUCUCCUAUCCAAUACAAAAACUAGGACAAUACAGACAGUAACUCCUAUGGUUACAAUGAACACUCCUGCUGAAGCUUCGUGCAC
B5: hsa-mir-302a (structured_RNA)
RNA: GGGACGUGGUCGCAACUUUAGUGAACACGGUGUACGAAGUUUCAGCCUUGCUUUGAAACUAAAGAAGUAAGGCUGAAGCUUCGUGCAC
B6: hsa-mir-4685 (structured_RNA)
RNA: GGGAAUUACACUACCGACGCUAAUGGGUGGUGUACGAAGUUUCAGCGCAAGGUUGUUGGUGAUAUGGCUUCCUCUCGCUGAAGCUUCGUGCAC
B7: hsa-mir-6820 (structured_RNA)
RNA: GGGAACACAGCUAAGGAGAAACGCAAGAGGUGUACGAAGUUUCAGCGUCACCAGCCCUCAUGUACUUGUGACGCUGAAGCUUCGUGCAC
B8: PARIS_ID26 (structured_RNA)
RNA: GGGAGCUCCAUCGAACCCCUUAUUUCACGGUGUACGAAGUUUCAGCGUGUCUGCUGGUGAUGCCCAACCCAGUGCUCUGCACCCAGGUCACGCUGAAGCUUCGUGCAC
B9: hsa-mir-6847 (structured_RNA)
RNA: GGGCACAAUCUCAGGCCGAUCCCAUGAGGGUGUACGAAGUUUCAGCGAGCUGGAAGGAGUGGGCCUGGCUCGCUGAAGCUUCGUGCAC
B10: NEAT1_ParasoR_ID14 (structured_RNA)
RNA: GGGAGGAACUAUCAACUAGGCUAGCGAGGGUGUACGAAGUUUCAGCGUGGUCCCACACCACGCUGAAGCUUCGUGCAC
B11: hsa-mir-3150a (structured_RNA)
RNA: GGGACGAGCGCAUAGGGUUUAUCUCCACGGUGUACGAAGUUUCAGCUCAGCACCUGAACGCCAAGGCUGGGCUGAAGCUUCGUGCAC
B12: hsa-mir-6880 (structured_RNA)
RNA: GGGACAAGCUGACGUAAGAAUCCGGAUAGGUGUACGAAGUUUCAGCAGGGCAGCUCCCAUGACUGCCUGACCGCGCUGAAGCUUCGUGCAC
B13: hsa-mir-4641 (structured_RNA)
RNA: GGGAACCGUUGAAGCAGGACUAAUCGUUGGUGUACGAAGUUUCAGCGGCAUCAGAGGACAGCCGCCUGGUGCCGCUGAAGCUUCGUGCAC
B14: hsa-mir-4441 (structured_RNA)
RNA: GGGAGGACUCGAUACGCUUACUGUUCACGGUGUACGAAGUUUCAGCGUGUACAGGGAGGAGACUGUACGUGAGAGAUAGUCAGAUCCGCAUGUUAGAGCAGAGUCUCCUUCGUGUACAGGCUGAAGCUUCGUGCAC
B15: hsa-mir-4446 (structured_RNA)
RNA: GGGAUACCUCUAUCAUGAGACAACAGGCGGUGUACGAAGUUUCAGCCUUGGCUUCAAUUUACUCCCAGGGCUGAAGCUUCGUGCAC
B16: hsa-mir-641 (structured_RNA)
RNA: GGGAGCAUUGGUACAUGCGCUGAACUCAGGUGUACGAAGUUUCAGCCCUCUGUCCUCUGUCCUCUACCUAUAGAGGGCUGAAGCUUCGUGCAC
B17: hsa-mir-4792 (structured_RNA)
RNA: GGGAAAGGGACUGCUUUAGCACCUACGAGGUGUACGAAGUUUCAGCUGGCCUGGCAGUGCGUCGGAAGAACAGGGCGGGUGGGGCCGCUGAAGCUUCGUGCAC
B18: hsa-mir-18b (structured_RNA)
RNA: GGGAAGAAACGUACCGAGUGACCCACCCGGUGUACGAAGUUUCAGCUGCAGUUAGUGAAGCAGCUUAGAAUCUACUGCCGCUGAAGCUUCGUGCAC
B19: hsa-mir-6848 (structured_RNA)
RNA: GGGCGAAACCGGCUAAAGGAUUGCUACCGGUGUACGAAGUUUCAGCCCAUGGUGUGCUCUGAUCCCCCUGUGGGCUGAAGCUUCGUGCAC
B20: hsa-mir-6840 (structured_RNA)
RNA: GGGAACACGGCCAAAGGUGCGCAUUUACGGUGUACGAAGUUUCAGCAGAUCCCCUGUUAGAGACGGGCCGCUGAAGCUUCGUGCAC
B21: hsa-mir-4744 (structured_RNA)
RNA: GGGAAGAGACGAGGAGGAAAGAUUUACGGGUGUACGAAGUUUCAGCUAUGACCAGGCCAUAGUAAACAUCAUAGCUGAAGCUUCGUGCAC
B22: hsa-mir-3611 (structured_RNA)
RNA: GGGAAAUGCGAUCAUUCGCCUGUCGCACGGUGUACGAAGUUUCAGCACAAUUAUGAAAGAAAAGAAAUUGUGCUGAAGCUUCGUGCAC

The other results are listed elsewhere or left out.

For one test, the target named is U1A (Homo sapiens, UniProt P09012). Description: FOREST: bead pull-down of RNA structure library v1, barcode microarray; U1A/LIN28A: 20 mM HEPES pH 7.5, 80 mM KCl, 20 mM NaCl, 10% glycerol, 2 mM DTT, 0.1 ug/uL BSA, 4 C; BG4/CIRBP/DHX36: 10 mM Tris-HCl pH 7.5, 100 mM KCl (or LiCl),; high values mean tight binding.
B1 yielded a binding signal of 0.683 z-score.

B2 yielded a binding signal of 0.681 z-score.

B3 had a binding signal of 0.705 z-score.

For the molecule B4, the binding signal was found to be 2.24 z-score.

B5: the binding signal turned out to be 0.707 z-score.

Regarding B6, the binding signal was 0.681 z-score.

In the case of B7, the binding signal came to 2.24 z-score.

In turn, B8 came in with a binding signal of 0.699 z-score.

The molecule B9 gave a binding signal of 0.694 z-score.

Regarding B10, the binding signal is 0.705 z-score.

As to B11, the binding signal was found to be 0.712 z-score.

As to B12, the binding signal was 0.701 z-score.

B13 displayed a binding signal of 0.707 z-score.

Take B14: the binding signal worked out at 0.689 z-score.

The molecule B15 registered a binding signal of 0.709 z-score.

B16: the binding signal worked out at 0.707 z-score.

On to B17, for which the binding signal came to 0.692 z-score.

On to B18, for which the binding signal was 0.702 z-score.

Consider B19, for which the binding signal was determined as 0.687 z-score.

Regarding B20, the binding signal came to 0.692 z-score.

With B21, the binding signal is 0.691 z-score.

As to B22, the binding signal worked out at 0.701 z-score.

The next test addresses T1, LIN28A. Described as above.
Molecule B1 yielded a binding signal of -0.0573 z-score.

The molecule B2 registered a binding signal of -0.419 z-score.

B3: the binding signal came out at 0.229 z-score.

For the molecule B4, the binding signal is 1.17 z-score.

For B5, the binding signal was found to be 0.336 z-score.

In turn, B6 displayed a binding signal of 0.916 z-score.

With B7, the binding signal is -2.02 z-score.

In the case of B8, the binding signal stood at 0.0523 z-score.

The molecule B9 gave a binding signal of 1.71 z-score.

Molecule B10 yielded a binding signal of -1.91 z-score.

B11 returned a binding signal of -0.736 z-score.

For B12, the binding signal was 0.0527 z-score.

Molecule B13 came in with a binding signal of 0.588 z-score.

As to B14, the binding signal was determined as 1.76 z-score.

B15 displayed a binding signal of -0.271 z-score.

As for B16, the binding signal is -0.635 z-score.

In the case of B17, the binding signal came out at 0.791 z-score.

Turning to B18, the binding signal was 0.227 z-score.

B19: the binding signal came to 1.06 z-score.

Regarding B20, the binding signal is -0.589 z-score.

For B21, the binding signal stood at 0.882 z-score.

B22 yielded a binding signal of -0.32 z-score.

A further test deals with T2, CIRBP. The description is as above.
In turn, B1 showed a binding signal of 1.04 z-score.

With B2, the binding signal worked out at 0.905 z-score.

For B3, the binding signal is -0.15 z-score.

Consider B4, for which the binding signal stood at 0.212 z-score.

Consider B5, for which the binding signal is -0.719 z-score.

In turn, B6 registered a binding signal of 0.296 z-score.

For B7, the binding signal was -1.21 z-score.

B8 came in with a binding signal of -0.89 z-score.

In turn, B9 showed a binding signal of -0.404 z-score.

Consider B10, for which the binding signal is -0.325 z-score.

For B11, the binding signal is -0.965 z-score.

In the case of B12, the binding signal is -1.27 z-score.

With B13, the binding signal was found to be 1.32 z-score.

With B14, the binding signal worked out at 1.49 z-score.

As to B15, the binding signal was found to be 0.601 z-score.

For B16, the binding signal is -0.164 z-score.

As for B17, the binding signal turned out to be 1.19 z-score.

B18 returned a binding signal of 0.465 z-score.

As to B19, the binding signal is -0.576 z-score.

B20 yielded a binding signal of -0.626 z-score.

B21: the binding signal was 0.53 z-score.

For B22, the binding signal was -0.446 z-score.

The next test has as its target T3, DHX36. The test is described as above.
For B1, the binding signal came to 0.258 z-score.

In turn, B2 had a binding signal of 0.574 z-score.

B3 gave a binding signal of 0.355 z-score.

B4 had a binding signal of -0.197 z-score.

In turn, B5 returned a binding signal of -0.872 z-score.

B6: the binding signal is -0.202 z-score.

On to B7, for which the binding signal was -0.862 z-score.

B8 had a binding signal of 0.0289 z-score.

For B9, the binding signal stood at 0.769 z-score.

Molecule B10 yielded a binding signal of -0.548 z-score.

B11 gave a binding signal of -0.651 z-score.

As for B12, the binding signal was -0.825 z-score.

B13 displayed a binding signal of 0.272 z-score.

On to B14, for which the binding signal stood at 0.359 z-score.

In turn, B15 yielded a binding signal of -1.48 z-score.

Turning to B16, the binding signal is -0.771 z-score.

Molecule B17 gave a binding signal of 1.42 z-score.

Consider B18, for which the binding signal is -0.124 z-score.

For B19, the binding signal was -0.0874 z-score.

The molecule B20 gave a binding signal of -0.453 z-score.

With B21, the binding signal is 0.304 z-score.

For the molecule B22, the binding signal is -0.293 z-score.

(Values after PMC7723054.)
